Measurements published in patent publication US20040191303A1, “Use of selectin-binding pregnancy proteins, liposomes, native mucin fragments and mimetic compounds for the treatment and prophylaxis inflammatory diseases, for preventing metastatic spread and for the prophylaxis of tumour diseases” (priority 2000, published 2004).

Molecular target: T1, E-selectin (Homo sapiens, UniProt P16581)
T1 construct: purchased R & D Systems
T1 sequence (P16581 22-610): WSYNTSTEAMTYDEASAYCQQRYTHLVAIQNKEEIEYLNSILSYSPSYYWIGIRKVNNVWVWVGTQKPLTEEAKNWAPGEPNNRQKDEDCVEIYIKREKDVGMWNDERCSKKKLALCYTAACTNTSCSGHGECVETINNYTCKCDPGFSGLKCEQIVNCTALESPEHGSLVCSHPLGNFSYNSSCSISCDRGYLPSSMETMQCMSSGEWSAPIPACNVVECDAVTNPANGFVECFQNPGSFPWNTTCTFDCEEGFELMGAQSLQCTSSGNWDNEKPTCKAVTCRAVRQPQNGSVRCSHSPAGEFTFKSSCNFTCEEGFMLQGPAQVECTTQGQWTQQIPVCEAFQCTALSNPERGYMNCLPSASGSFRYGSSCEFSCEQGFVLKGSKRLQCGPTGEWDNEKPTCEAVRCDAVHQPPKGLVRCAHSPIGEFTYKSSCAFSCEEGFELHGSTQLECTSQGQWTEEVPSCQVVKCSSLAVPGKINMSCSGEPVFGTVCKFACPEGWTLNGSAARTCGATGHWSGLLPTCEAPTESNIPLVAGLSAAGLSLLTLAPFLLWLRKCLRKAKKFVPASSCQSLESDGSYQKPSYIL
Assay: Adhesion inhibition test: HepG2 hepatoma cells to immobilized recombinant E-selectin
Assay type: cell-based
Conditions: HepG2 cell adhesion; concentration of inhibiting agent for 50% inhibition of adhesion
Protocol: The adhesion test described below is used in vitro to test the active substances. To this end, either recombinant E-selectin is immobilized on 96-well titer plates, or the expression of E-selectin on activated endothelial cells from veins of human umbilical cords (HUVEC) is induced by stimulation with cytokines. Culturing of HUVEC endothelial cells is also performed in 96-well microtiter plates.
E-selectin (R & D Systems) (5 μg/ml) is immobilized by incubating at 4° C. over-night. The plates are washed with a calcium-containing phosphate buffer (Ca-PBS) and blocked with 1% bovine serum albumin (BSA) for 1 hour at room temperature. Amniotic hCG (0.005-1 nmol/well) is added and pre-incubated for 30 minutes at room temperature. Thereafter, 1×10^5 51Cr-labelled HepG2 hepatoma cells adhering to E-selectin are added, and this is incubated for another 30 minutes at room temperature. Subsequently, the unbound cells are removed by washing 3 times with Ca-PBS, and the bound cells, following lysis with 0.1 N sodium hydroxide solution, are quantified by means of radioactivity measurement. As controls, the carbohydrate-binding domain of E-selectin-blocking monoclonal antibody BBA2 (R & D Systems), EDTA to remove Ca from the test system, and the monovalent tetrasaccharide sialyl-Lewis x (sLe^x) binding selectively but with low affinity are used and carried along in parallel in the test series. […]

Substance: sialyl-Lewis x [sLe^x, reference compound]
- IC50: 1500 µM
